These are literature values, as cited in PubChem BioAssay AID977610.

As usually defined, the pKi is the Ki on a negative log10 scale, so that one unit is a factor of ten.

pKi: −log10 of the molar value.

What all share (test): PubChem AID 977610
The target of series [1] is N-terminal Human Maltase-Glucoamylase. Conditions: PDB protein-ligand complexes, literature Ki, protein: N-terminal Human Maltase-Glucoamylase.
Series [2] has as its target purine nucleoside phosphorylase. Conditions: PDB protein-ligand complexes, literature Ki, protein: purine nucleoside phosphorylase.
The target of another series is glycogen phosphorylase. To be noted: PDB protein-ligand complexes, literature Ki, protein: glycogen phosphorylase.
The next series has as its target thrombin alpha. Conditions: PDB protein-ligand complexes, literature Ki, protein: thrombin alpha.
The target of a further series is mta/sah nucleosidase. Conditions: PDB protein-ligand complexes, literature Ki, protein: mta/sah nucleosidase.
Another series deals with chymotrypsin gamma. To be noted: PDB protein-ligand complexes, literature Ki, protein: chymotrypsin gamma.
The target of series [3] is Ribulose bisphosphate carboxylase. To be noted: PDB protein-ligand complexes, literature Ki, protein: Ribulose bisphosphate carboxylase.
A further series addresses HIV-1 protease. To be noted: PDB protein-ligand complexes, literature Ki, protein: HIV-1 protease.
The next series concerns the target thymidylate synthase. Conditions: PDB protein-ligand complexes, literature Ki, protein: thymidylate synthase.
A further series concerns the target penicillopepsin. To be noted: PDB protein-ligand complexes, literature Ki, protein: penicillopepsin.
The target of series [4] is glutamate [nmda] receptor. Conditions: PDB protein-ligand complexes, literature Ki, protein: glutamate [nmda] receptor.
Series [5] deals with orotidine 5'-monophosphate decarboxylase. To be noted: PDB protein-ligand complexes, literature Ki, protein: orotidine 5'-monophosphate decarboxylase.
In another series the target is NEURAMINIDASE A. Conditions: PDB protein-ligand complexes, literature Ki; protein: NEURAMINIDASE A; PDB entry 2YA8.
Another series addresses trypsin beta. Conditions: PDB protein-ligand complexes, literature Ki, protein: trypsin beta.
The target of series [6] is Orotidine 5-phosphate decarboxylase. To be noted: PDB protein-ligand complexes, literature Ki; protein: Orotidine 5-phosphate decarboxylase; PDB entry 2ZZ1.
In series [7] the target is protocatechuate 3,4-dioxygenase. Conditions: PDB protein-ligand complexes, literature Ki; protein: protocatechuate 3,4-dioxygenase; PDB entry 3PCB.
The next series addresses arginase 1. To be noted: PDB protein-ligand complexes, literature Ki, protein: arginase 1.

Take `OC[C@@H]1[C@@H](O)[C@H](O)[C@H]2[C@H](O)[C@@H](O)CN21`: in series [1] (PDB entry 3CTT), the negative logarithm of the Ki (pKi) was 6.35.
Take `Nc1nc2c(ncn2COCCO)c(=O)[nH]1`: in series [2] (PDB entry 1PWY), the pKi is 4.05.
Consider `CC(=O)N[C@@H]1O[C@H](CO)[C@@H](O)[C@H](O)[C@H]1O`, for which, at glycogen phosphorylase (PDB entry 2PRJ), the pKi was 4.49.
Consider `NC(N)=NCCCC(=O)NC[C@@H]1CCCN1C(=O)[C@H](CO)NS(=O)(=O)c1ccc2ccccc2c1`, for which, at thrombin alpha (PDB entry 1BMM), the negative logarithm of the Ki (pKi) was 7.10.
With `O=C(NC(=O)c1ccccc1)N[C@@H]1O[C@H](CO)[C@@H](O)[C@H](O)[C@H]1O`, the pKi on glycogen phosphorylase (PDB entry 1K06) and on glycogen phosphorylase (PDB entry 1K08) was 5.34 in each case.
For `Nc1ncnc2nc[nH]c12`, the negative-log Ki (pKi) at mta/sah nucleosidase (PDB entry 1JYS) was 3.52.
For `CC(=O)NC(=O)N[C@@H]1O[C@H](CO)[C@@H](O)[C@H](O)[C@H]1O`, the pKi at glycogen phosphorylase (PDB entry 1KTI) is 3.43.
For the compound `CC(=O)N[C@H]([Al])Cc1ccc(Cl)cc1`, the negative logarithm of the Ki (pKi) at chymotrypsin gamma (PDB entry 1VGC) is 5.92.
With `O=C(O)[C@H](O)[C@@H](O)[C@H](O)[C@H](O)COP(=O)(O)O`, in series [3] (PDB entry 3AXM), the negative-log Ki (pKi) was 5.07.
Take `OC[C@H]1O[C@@H]2O[C@H]3[C@H](O)[C@@H](O)[C@@H](O[C@H]4[C@H](O)[C@@H](O)[C@@H](O[C@H]5[C@H](O)[C@@H](O)[C@@H](O[C@H]6[C@H](O)[C@@H](O)[C@@H](O[C@H]7[C@H](O)[C@@H](O)[C@@H](O[C@H]8[C@H](O)[C@@H](O)[C@@H](O[C@H]9[C@H](O)[C@@H](O)[C@@H](O[C@H]1[C@H](O)[C@H]2O)O[C@@H]9CO)O[C@@H]8CO)O[C@@H]7CO)O[C@@H]6CO)O[C@@H]5CO)O[C@@H]4CO)O[C@@H]3CO`: the pKi on glycogen phosphorylase (PDB entry 1P2G) is 2.13.
Turning to `N#Cc1ccc(S(=O)(=O)Nc2cccc([C@@H](c3c(O)c4c(oc3=O)CCCCCC4)C3CC3)c2)cc1`, the negative logarithm of the Ki (pKi) at HIV-1 protease (PDB entry 1HPO) was 9.22.
With `OCCN1C[C@H](O)[C@@H](O)[C@H](O)[C@H]1CO`, in series [1] (PDB entry 3L4W), the negative-log Ki (pKi) is 6.00.
Take `O=C(O)CCNC(=O)[C@H]1CCCN1S(=O)(=O)c1ccc(C(=O)N[C@@H](CCC(=O)O)C(=O)O)cc1`: the pKi on thymidylate synthase (PDB entry 1F4G) is 6.48.
With `COC(=O)[C@@H]1Cc2cccc(c2)CNC(=O)C[C@H](NC(=O)[C@@H](NC(=O)CC(C)C)C(C)C)C(=O)N[C@@H](CC(C)C)P(=O)(O)O1`, the pKi at penicillopepsin (PDB entry 1BXO) was 10.00.
On to `O=C(O)c1cc(=O)c2c(Cl)cc(Cl)cc2[nH]1`, for which, in [4] (PDB entry 1PBQ), the pKi was 6.27.
On to `CC(=O)N[C@@H]([Al])Cc1cccc2ccccc12`, for which, at chymotrypsin gamma (PDB entry 4VGC), the pKi is 6.90.
As for `O=c1cnn([C@@H]2O[C@H](COP(=O)(O)O)[C@@H](O)[C@H]2O)c(=O)[nH]1`, in series [5] (PDB entry 1LOS), the pKi was 7.19.
As for `NC1(C(=O)O)CCCC1`, the pKi in series [4] (PDB entry 1Y1M) was 1.82.
As to `CC(=O)N[C@H]([Al])Cc1cccc2ccccc12`, the negative logarithm of the Ki (pKi) on chymotrypsin gamma (PDB entry 3VGC) is 5.51.
In the case of `Cc1nc2ccc3ccc(CNc4ccc5c(c4)CN([C@@H](CCC(=O)O)C(=O)O)C5=O)cc3c2c(=O)[nH]1`, on thymidylate synthase (PDB entry 1F28), the pKi is 7.80.
As to `CC(=O)N[C@@H]([Al])Cc1ccc(Cl)cc1`, on chymotrypsin gamma (PDB entry 2VGC), the pKi is 5.24.
With `CNC(=O)C(F)(F)[C@H](O)[C@H](CC(C)C)NC(=O)[C@@H](NC(=O)[C@@H](NC(=O)CC(C)C)C(C)C)C(C)C`, at penicillopepsin (PDB entry 1APW), the pKi is 8.00.
`O=c1[nH]cnc2c([C@@H]3O[C@H](CO)[C@@H](O)[C@H]3O)[nH]nc12`: the pKi in [2] (PDB entry 1A69) and in [2] (PDB entry 1PR1) was 5.30 in each case.
On to `NC1(C(=O)O)CCC1`, for which the pKi in series [4] (PDB entry 1Y1Z) is 3.08.
On to `Cc1cc(NS(=O)(=O)c2ccccc2)cc(OCCNc2ccncc2)c1`, for which the pKi on thrombin alpha (PDB entry 1UVT) was 7.64.
For `COC(=O)[C@H](Cc1ccccc1)OP(=O)(O)[C@H](CC(C)C)NC(=O)[C@H](C)NC(=O)[C@H](C)NC(=O)OCc1ccccc1`, the negative logarithm of the Ki (pKi) on penicillopepsin (PDB entry 1PPM) is 5.80.
For the compound `CCC(CC)O[C@@H]1C=C(C(=O)O)C[C@H](N)[C@H]1NC(C)=O`, the pKi on NEURAMINIDASE A is 5.75.
`Cc1ccc(S(=O)(=O)N[C@@H](Cc2cccc(C(=N)N)c2)C(=O)N2CCCCC2)cc1`: the negative-log Ki (pKi) on trypsin beta (PDB entry 1PPH) is 5.92.
`NCc1ccccc1`: the pKi on trypsin beta (PDB entry 2BZA) is 2.80.
Take `Nc1ncnc2c1ccn2[C@@H]1O[C@H](CO)[C@@H](O)[C@H]1O`: the pKi in series [2] (PDB entry 1PR5) is 3.92.
Consider `NC1(C(=O)O)CC1`, for which the pKi in [4] (PDB entry 1Y20) is 5.32.
On to `O=C1COc2ccc(Cl)cc2CNC(=O)[C@@H]2CCCN2C(=O)[C@@H](C2CCCCC2)NC(=O)CCN1`, for which the pKi at thrombin alpha (PDB entry 1NT1) was 8.89.
Regarding `COC(=O)[C@H](Cc1ccccc1)OP(=O)(O)[C@H](CC(C)C)NC(=O)[C@H](CC(N)=O)NC(=O)[C@@H](NC(=O)CC(C)C)C(C)C`, on penicillopepsin (PDB entry 1BXQ), the pKi is 7.38.
Regarding `N=C(N)c1ccc(/C=C2/CCCC/C(=C/c3ccc(C(=N)N)cc3)C2=O)cc1`, the negative logarithm of the Ki (pKi) at trypsin beta (PDB entry 1V2N) was 5.90.
Consider `Cc1ccc(S(=O)(=O)N[C@@H](Cc2ccc(C(=N)N)cc2)C(=O)N2CCCCC2)cc1`, for which the negative-log Ki (pKi) at thrombin alpha (PDB entry 1ETT) is 5.89.
Turning to `O=C1CC(=O)N([C@@H]2O[C@H](COP(=O)(O)O)[C@@H](O)[C@H]2O)C(=O)N1`, the pKi in series [6] is 4.54; in series [5] (PDB entry 1X1Z), 11.06.
Take `N=C(N)c1ccc([C@H]2[C@H]3C(=O)N(Cc4ccc(F)cc4)C(=O)[C@H]3[C@@H]3CCCN32)cc1`: at thrombin alpha (PDB entry 1OYT), the negative-log Ki (pKi) is 7.24.
`N[C@@H]1CONC1=O`: the pKi in series [4] (PDB entry 1PB9) is 3.62.
Take `O=C(O)c1cccc(O)c1`: the negative logarithm of the Ki (pKi) in series [7] is 2.40.
For `N=C(N)N1CCC[C@H](C(=O)NC[C@@H]2CCCN2C(=O)[C@H](CO)NS(=O)(=O)c2ccc3ccccc3c2)C1`, on thrombin alpha (PDB entry 1BMN), the pKi was 8.44.
`COC(=O)[C@H](Cc1ccccc1)OP(=O)(O)[C@H](CC(C)C)NC(=O)[C@@H](NC(=O)[C@@H](NC(=O)CC(C)C)C(C)C)C(C)C`: at penicillopepsin (PDB entry 1PPL), the pKi is 8.55.
Take `FC(F)(CNc1nccc2oc(Cc3ccccc3-n3cncn3)nc12)[C@H]1CCCCN1`: at thrombin alpha (PDB entry 1ZGI), the negative-log Ki (pKi) was 5.34.
`CC(C)CN(C[C@@H](O)[C@H](Cc1ccccc1)NC(=O)[C@@H]1CN(c2cccc(C(F)(F)F)c2)C(=O)O1)S(=O)(=O)c1ccc2c(c1)OCO2`: the negative-log Ki (pKi) on HIV-1 protease (PDB entry 3GI4) is 10.80.
For the compound `CSC[C@H]1CN(Cc2c[nH]c3c(N)ncnc23)C[C@@H]1O`, the negative logarithm of the Ki (pKi) at mta/sah nucleosidase (PDB entry 1Y6Q) is 11.70.
Regarding `NC(=NCCC[C@H](N)C(=O)O)NO`, the negative-log Ki (pKi) on arginase 1 (PDB entry 1HQF) is 5.00.
Turning to `CCOC(=O)CP(=O)(O)[C@H](CC(C)C)NC(=O)[C@@H](NC(=O)[C@@H](NC(=O)CC(C)C)C(C)C)C(C)C`, at penicillopepsin (PDB entry 1PPK), the pKi is 7.66.
With `CNC(=O)C(F)(F)C(O)(O)[C@H](CC(C)C)NC(=O)[C@@H](NC(=O)[C@@H](NC(=O)CC(C)C)C(C)C)C(C)C`, the pKi on penicillopepsin (PDB entry 1APV) was 9.00.
For the compound `Nc1nc2[nH]cc(CCc3ccc(C(=O)N[C@@H](CCC(=O)O)C(=O)O)cc3)c2c(=O)[nH]1`, the pKi on thymidylate synthase (PDB entry 1JUJ) was 6.96.
`NC(=O)C1=CN([C@@H]2O[C@H](COP(=O)(O)OP(=O)(O)OC[C@H]3O[C@@H](n4cnc5c(N)ncnc54)[C@H](OP(=O)(O)O)[C@@H]3O)[C@@H](O)[C@H]2O)C=CC1`: in [3] (PDB entry 3AXK), the pKi was 4.15.
`CC(C)[C@H](N)C(=O)O`: at arginase 1 (PDB entry 1T4S), the negative logarithm of the Ki (pKi) is 2.44.
